## Antibody variant affinities, Ab-14 light chain, assay 1

Target: peptide PDVDLGDISGINAS, taken from heptad repeat 2 (HR2) of SARS-CoV-2 spike.

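The starting antibody came from a phage panning campaign against this peptide. In library AAYL50, one, two or three CDR residues were substituted; doubles and triples were drawn at random. The scFvs were displayed on barcoded MATa yeast, the peptide on MATalpha yeast. After mating in shaken culture at 30 °C for 16 h, diploids were selected and their barcode pairs sequenced. Read counts were normalised to the haploid input and turned into Kd by a linear fit to BCL2-family pairs of known affinity, for each replicate. There are three technical replicates.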

Ab-14 is the parent antibody, in scFv form: VH, then a 15-residue (Gly4Ser)3 linker, then VL. The heavy chain is unchanged in all variants.
VH: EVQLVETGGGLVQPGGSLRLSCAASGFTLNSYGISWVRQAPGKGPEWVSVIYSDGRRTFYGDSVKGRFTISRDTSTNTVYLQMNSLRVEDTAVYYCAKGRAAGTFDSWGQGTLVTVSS
VL: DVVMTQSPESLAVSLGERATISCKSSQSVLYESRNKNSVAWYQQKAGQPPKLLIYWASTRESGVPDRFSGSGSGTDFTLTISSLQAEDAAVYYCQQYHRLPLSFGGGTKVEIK

Variants are written as CDR1, CDR2 and CDR3 of the light chain (limits as in the source). Parent: KSSQSVLYESRNKNSVA, WASTRES, QQYHRLPLS.
The read-out is the apparent dissociation constant on a log10 scale (nM): the lower, the stronger.
"nd" marks a missing value. The strain was present, yet no cells mated with the target were sequenced in that replicate, which points to weak or no binding.
As a blank, each scFv also met three strains without target: over library AAYL50, 18% of these pairings were detected, typically at 4.19 and seldom below 2.99. Also given: how often the same scFv was detected with the empty control strains, with their mean in brackets.

CDR-L1,CDR-L2,CDR-L3,"replicates, log10 nM",control signals
KSSQSVLYESRCKNSVA,WASTRVS,QQCHRLPLS,2.34 / 2.32 / 1.98,2/9 (3.47)
KSSQSVLYESRNKNHVA,WADTRES,QQYHRLPLK,nd / nd / 4.05,1/9 (3.69)
KSSQSVLYESRNKNSVA,WASFREQ,QQYHRLPKS,nd / nd / nd,0/9
KSSQSVLYESRVKNSYA,YASTRES,QQYHRLPLS,4.31 / nd / nd,2/9 (4.03)
KSSASVLYESNNYNSVA,WASTRES,QQYHRLPLS,nd / nd / nd,0/9
YSSQSVLYESRNKVSVA,WASTRES,QCYHRLPLS,nd / nd / nd,0/9
RSSQSGLYESRNKNSVA,WASGRES,QQYHRLPLS,2.60 / 2.08 / nd,1/9 (2.63)
KSSQSVLYESRNLNSVA,TASTRES,QQYHRLPLS,nd / nd / nd,0/9
KSSQSVLYESRDKNSVA,WASTRPS,QQYVRLPLS,0.86 / 1.06 / 1.02,1/9 (4.83)
KSSQSVHYESRNHNSVA,WASTRES,QLYHRLPLS,3.19 / 2.63 / 2.71,2/9 (4.32)
KSSQSVLYESRGKNSKA,WASTRES,KQYHRLPLS,nd / nd / 5.03,1/9 (3.15)
KSSQSVLYQSRNKNSVA,WYSTRES,QDYHRLPLS,nd / nd / nd,0/9
KSSQSVLYESRNKNSVA,WQSTREL,QQYHRLFLS,2.94 / 2.86 / 3.49,2/9 (4.52)
KSSQSVLYESRNKNSVA,WASTRES,QQYSRLTLS,nd / nd / nd,0/9
KSSQLYLYESRNKNSYA,WASTRES,QQYHRLPLS,3.70 / 3.71 / 5.50,6/9 (5.04)
CCSQSVLYEGRNKNSVA,WASTRES,QQYHRLPLS,2.23 / 1.85 / 2.40,2/9 (4.39)
KSSQSVGYESRDKNSIA,WASTRES,QQYHRLPLS,1.03 / 1.34 / 1.37,1/9 (4.12)
KSSQSVLYESRNKNPVW,HASTRES,QQYHRLPLS,nd / nd / nd,0/9
KSSQSVLYESRNKFNGA,WASTRES,QQYHRLPLS,nd / 4.13 / nd,0/9
KSLQSVLYESRNKNSVA,WASTREH,QQYHRDPLS,nd / nd / nd,1/9 (3.73)
KSSQSVLYESRNKNDVA,WASTRES,QQWHRLPWS,nd / nd / nd,3/9 (3.13)
KSSQSVLYESRNKNSVA,WAPHRES,QQYHRLPLS,nd / nd / nd,1/9 (4.58)
KSSDSVLYESRNKNSVA,WASTRES,QQYVRLPCS,3.25 / 2.38 / 3.27,3/9 (4.88)
KSLQSVLYESRNKNSVA,WQSTREL,QQYHRLPLS,nd / nd / nd,0/9
PSSQSVLYESRNKNSVA,WASTRES,QQYHRPPLS,3.94 / 3.22 / nd,2/9 (3.68)
KSSQSVLYESNNKNSVA,YASTRES,QQYHRLPLM,-0.06 / 0.28 / 0.12,2/9 (3.71)
KSSQSVLYESRNKMSVA,WASYRES,QQYHRLNLS,1.95 / 1.64 / 2.03,1/9 (4.56)
KSSQSVLDESNNKNSVA,WASYRES,QQYHRLPLS,nd / nd / nd,1/9 (4.46)
KSSQSVLYESRNKVSVA,WCSTRES,QQYNRLPLS,nd / nd / nd,2/9 (3.37)
KSSQSVLYESRNKNSVA,WAMCRES,QWYHRLPLS,nd / nd / nd,0/9
KSSQSVLYEYRNKNSVA,WAATSES,QQYHRLPLS,nd / nd / nd,0/9
KLSQSVLYESRNKNSVA,SASTRWS,QQYHRLPLS,-0.56 / -0.15 / -0.51,0/9
KSSQAVLYESRNSNSVA,WASTRYS,QQYHRLPLS,0.55 / 0.78 / 0.67,3/9 (4.77)
KSSQSVTYESRNKNCVA,WASTRAS,QQYHRLPLS,5.26 / nd / nd,1/9 (3.50)
KSSQSVLYEARNKNSVE,WASTRES,QQYHRQPLS,nd / nd / 4.30,0/9
KSSQSVLEERRNKNSVA,WASTRES,QQYIRLPLS,1.29 / 1.47 / 1.35,2/9 (4.48)
SSSQSVLYESRNKNSVD,WASTRES,QQYHRCPLS,nd / 3.21 / nd,1/9 (4.47)
KSSQSVLYESRNKNSVH,WASTRES,QSDHRLPLS,5.99 / nd / 3.97,0/9
KSSQSVLYVRRNKNDVA,WASTRES,QQYHRLPLS,nd / nd / nd,0/9

A selection of 6 entries from above:

| CDR-L1 | CDR-L2 | CDR-L3 | replicates, log10 nM | control signals |
|---|---|---|---|---|
| YSSQSVLYESRNKVSVA | WASTRES | QCYHRLPLS | nd / nd / nd | 0/9 |
| KSSQSVGYESRDKNSIA | WASTRES | QQYHRLPLS | 1.03 / 1.34 / 1.37 | 1/9 (4.12) |
| KSSQSVLYESRNKNSVH | WASTRES | QSDHRLPLS | 5.99 / nd / 3.97 | 0/9 |
| KSSQSVLYESRNLNSVA | TASTRES | QQYHRLPLS | nd / nd / nd | 0/9 |
| KSSQSVLYESRNKVSVA | WCSTRES | QQYNRLPLS | nd / nd / nd | 2/9 (3.37) |
| SSSQSVLYESRNKNSVD | WASTRES | QQYHRCPLS | nd / 3.21 / nd | 1/9 (4.47) |

In this assay the parent's reference entry averaged 0.65; its copy inside this library read 1.68.

Source: Engelhart et al. 2022 (doi:10.1038/s41597-022-01779-4), MIT Lincoln Laboratory and A-Alpha Bio; data file from the FLAb repository.